## Antibody variant affinities, Ab-14 light chain, assay B

Antigen: PDVDLGDISGINAS, a 14-residue peptide of the SARS-CoV-2 spike HR2 region.

Parent scFv Ab-14: VH joined to VL by a 15-residue (Gly4Ser)3 linker. Changes lie in the light chain CDRs alone.
VH: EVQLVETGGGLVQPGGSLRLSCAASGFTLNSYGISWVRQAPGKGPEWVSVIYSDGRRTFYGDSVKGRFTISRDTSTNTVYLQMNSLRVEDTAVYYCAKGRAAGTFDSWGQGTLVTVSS
VL: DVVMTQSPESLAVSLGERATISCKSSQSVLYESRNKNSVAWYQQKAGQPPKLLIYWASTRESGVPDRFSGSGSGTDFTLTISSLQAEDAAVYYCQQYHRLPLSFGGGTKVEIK

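These sequences belong to a second round, designed from the earlier measurements on random variants of the parent. Their group label is 14L_En_Gen (En: ensemble of fine-tuned language models; Gen: genetic algorithm). The scFvs were displayed on barcoded MATa yeast, the peptide on MATalpha yeast. Binding brings cells together so that they mate, and sequencing counts the barcode pairs among the diploids. Read counts were normalised to the haploid input and turned into Kd by a linear fit to BCL2-family pairs of known affinity, for each replicate. The assay was run in six technical replicates.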

Variants are written as CDR1, CDR2 and CDR3 of the light chain (limits as in the source). Parent: KSSQSVLYESRNKNSVA, WASTRES, QQYHRLPLS.
Numbers give log10(Kd / nM), so 0 is 1 nM and 3 is 1 µM. Smaller is tighter.
The mean shown is taken over the replicates in which the pair was detected.
Where no diploid with the target was found in that replicate, the entry reads "nd": below detection, most likely a poor binder, though not proof of it.
In the paper, a design with two or fewer of six values counts as a poor binder.

{"CDR-L1": "TISSVMNHMTRIENNVA", "CDR-L2": "NQDMREA", "CDR-L3": "QQYDRLPLS", "log10 Kd (nM) by replicate": "0.31 / 0.21 / 0.18 / 0.29 / 0.59 / 0.61", "log10 Kd (nM), mean": "0.37", "signal with controls": "0 of 18"}
{"CDR-L1": "TISDVMGHLTKAHNNVA", "CDR-L2": "DMDTRGD", "CDR-L3": "QQYNRLPLS", "log10 Kd (nM) by replicate": "0.23 / 0.12 / 0.00 / -0.21 / -0.03 / 0.01", "log10 Kd (nM), mean": "0.02", "signal with controls": "1 of 18 (2.21)"}
{"CDR-L1": "MLSQMWALGMKVSNSVA", "CDR-L2": "QATMRFN", "CDR-L3": "QQYERLPLI", "log10 Kd (nM) by replicate": "nd / nd / nd / nd / nd / nd", "log10 Kd (nM), mean": "nd", "signal with controls": "0 of 18"}
{"CDR-L1": "MISQVMNTLTRQGNNVA", "CDR-L2": "DLTEREK", "CDR-L3": "QQYFRLPLS", "log10 Kd (nM) by replicate": "0.89 / 1.11 / 1.07 / 0.86 / 0.83 / 0.65", "log10 Kd (nM), mean": "0.90", "signal with controls": "0 of 18"}
{"CDR-L1": "KVSEFMRGLMSRKNSIA", "CDR-L2": "DNVTRSN", "CDR-L3": "QQYDRLPLS", "log10 Kd (nM) by replicate": "1.90 / 1.86 / 1.68 / 1.68 / 2.45 / 2.33", "log10 Kd (nM), mean": "1.98", "signal with controls": "0 of 18"}
{"CDR-L1": "TISQMTSLFSQTINNVA", "CDR-L2": "EVSTREN", "CDR-L3": "QQYDRLPLS", "log10 Kd (nM) by replicate": "nd / nd / nd / 0.69 / nd / 1.22", "log10 Kd (nM), mean": "0.95", "signal with controls": "0 of 18"}
{"CDR-L1": "NIYQAMHTLMQAKNNVA", "CDR-L2": "DVTERNN", "CDR-L3": "QQYFRLPLS", "log10 Kd (nM) by replicate": "0.53 / 0.42 / -0.17 / 0.24 / 0.33 / 0.37", "log10 Kd (nM), mean": "0.29", "signal with controls": "0 of 18"}
{"CDR-L1": "KLTQVSGHLSAIKNNVA", "CDR-L2": "EMVTREN", "CDR-L3": "QQYNRLPLS", "log10 Kd (nM) by replicate": "0.44 / 0.50 / 0.54 / -0.03 / 0.38 / 0.48", "log10 Kd (nM), mean": "0.38", "signal with controls": "1 of 18 (2.43)"}
{"CDR-L1": "IIDQIMYHGNKRANSIA", "CDR-L2": "QASERLN", "CDR-L3": "QQYHHLPLF", "log10 Kd (nM) by replicate": "1.37 / 1.26 / 1.37 / 0.94 / 0.87 / 0.92", "log10 Kd (nM), mean": "1.12", "signal with controls": "1 of 18 (1.33)"}
{"CDR-L1": "IVSQLMLWGHLAKNSIA", "CDR-L2": "EAVTRYN", "CDR-L3": "QQYDRLPLF", "log10 Kd (nM) by replicate": "nd / nd / 1.64 / nd / 0.94 / 1.31", "log10 Kd (nM), mean": "1.30", "signal with controls": "0 of 18"}
{"CDR-L1": "TLYGLSMSMSKNKNNVA", "CDR-L2": "EMTTREK", "CDR-L3": "QQYDRLPLF", "log10 Kd (nM) by replicate": "0.54 / 0.62 / 0.26 / 0.20 / 0.46 / 0.59", "log10 Kd (nM), mean": "0.44", "signal with controls": "2 of 18 (2.71)"}
{"CDR-L1": "MISQVMNMLTKEGNNVA", "CDR-L2": "DLQEREN", "CDR-L3": "QQYFRLPLS", "log10 Kd (nM) by replicate": "2.62 / 1.86 / 1.75 / 1.76 / 2.29 / 2.50", "log10 Kd (nM), mean": "2.13", "signal with controls": "1 of 18 (3.52)"}
{"CDR-L1": "TISQMSTLFSQSIQNVA", "CDR-L2": "EVSTRLN", "CDR-L3": "QQYDRLPLM", "log10 Kd (nM) by replicate": "1.16 / 0.95 / 0.48 / 0.64 / 0.74 / 0.82", "log10 Kd (nM), mean": "0.80", "signal with controls": "1 of 18 (2.89)"}
{"CDR-L1": "KLQSVTGTEKVHGNNVA", "CDR-L2": "EMETREK", "CDR-L3": "QQYNRLPLS", "log10 Kd (nM) by replicate": "-0.23 / -0.21 / -0.25 / -0.10 / -0.13 / 0.35", "log10 Kd (nM), mean": "-0.09", "signal with controls": "0 of 18"}
{"CDR-L1": "TISQMTSLFSQSINNVA", "CDR-L2": "EVSTREE", "CDR-L3": "QQYDRLPLV", "log10 Kd (nM) by replicate": "0.73 / 0.82 / 0.41 / 0.75 / 0.71 / 1.00", "log10 Kd (nM), mean": "0.74", "signal with controls": "2 of 18 (3.10)"}
{"CDR-L1": "MISQLMNMGTFAINSVA", "CDR-L2": "QAEIRNA", "CDR-L3": "QQYDRLPLT", "log10 Kd (nM) by replicate": "1.74 / 1.64 / 1.96 / 1.60 / 1.68 / 1.96", "log10 Kd (nM), mean": "1.77", "signal with controls": "2 of 18 (1.66)"}
{"CDR-L1": "MISQLMNMGSFAINSVA", "CDR-L2": "QAQTRNE", "CDR-L3": "QQYDRLPLI", "log10 Kd (nM) by replicate": "0.83 / nd / nd / nd / nd / nd", "log10 Kd (nM), mean": "0.83", "signal with controls": "0 of 18"}
{"CDR-L1": "TISGIMMQMSHSKNNVA", "CDR-L2": "EVSMRLD", "CDR-L3": "QQYFRLPLE", "log10 Kd (nM) by replicate": "1.38 / 1.25 / 0.92 / 1.40 / 1.73 / 1.42", "log10 Kd (nM), mean": "1.35", "signal with controls": "2 of 18 (2.56)"}
{"CDR-L1": "MIYGAQRELGLAANSIA", "CDR-L2": "DNVTRYQ", "CDR-L3": "QQYERLPLS", "log10 Kd (nM) by replicate": "0.57 / 0.80 / 1.01 / 0.73 / 1.15 / 1.17", "log10 Kd (nM), mean": "0.90", "signal with controls": "0 of 18"}
{"CDR-L1": "KISQMVRVGSTVSNSIA", "CDR-L2": "EMVTRAK", "CDR-L3": "QQYHRLPLA", "log10 Kd (nM) by replicate": "1.17 / 0.60 / 0.81 / 1.08 / 1.01 / 0.96", "log10 Kd (nM), mean": "0.94", "signal with controls": "1 of 18 (2.98)"}

For reference, 3 entries of the list once more:

CDR-L1	CDR-L2	CDR-L3	log10 Kd (nM) by replicate	log10 Kd (nM), mean	signal with controls
TISGIMMQMSHSKNNVA	EVSMRLD	QQYFRLPLE	1.38 / 1.25 / 0.92 / 1.40 / 1.73 / 1.42	1.35	2 of 18 (2.56)
TLYGLSMSMSKNKNNVA	EMTTREK	QQYDRLPLF	0.54 / 0.62 / 0.26 / 0.20 / 0.46 / 0.59	0.44	2 of 18 (2.71)
TISDVMGHLTKAHNNVA	DMDTRGD	QQYNRLPLS	0.23 / 0.12 / 0.00 / -0.21 / -0.03 / 0.01	0.02	1 of 18 (2.21)

Values of this round are not directly comparable with the first-round values of the same sequences.
The parent sequence was in this pool as ten entries: three were never detected, three once, and four in most replicates, with averages from 0.34 to 2.37.
As a blank, each scFv also met three strains without target: over all light chain designs, 4% of these pairings were detected, typically at 2.64 and seldom below 1.59. The control count says in how many pairings with the empty strains this scFv gave a signal, with their mean in brackets.

The measurements come from Li et al. 2023 (doi:10.1038/s41467-023-39022-2) through the FLAb antibody collection.